Values belong to the molecule of their own block, whether it stands above or below them.
How the values were obtained:
WSUDLCL2 = assay: cells; format: functional, cell-based; details: Homo sapiens
Pfeiffer = assay: cells; format: functional, cell-based; details: Homo sapiens
[1] = target: T1, Histone-lysine N-methyltransferase EZH2 (Homo sapiens, UniProt Q15910)
cells = format: cell-based; details: Homo sapiens, HCT-116
[2] = target: Histone-lysine N-methyltransferase EZH2 (Homo sapiens, UniProt Q15910, Y641F)
[3] = target: Histone-lysine N-methyltransferase EZH2 (Homo sapiens, UniProt Q15910, Y641N)
[4] = target: T1, Histone-lysine N-methyltransferase EZH2; remark: listed apart in the source
[5] = target: T2, Histone-lysine N-methyltransferase EZH1 (Homo sapiens, UniProt Q92800)
T2 sequence (Q92800 whole entry): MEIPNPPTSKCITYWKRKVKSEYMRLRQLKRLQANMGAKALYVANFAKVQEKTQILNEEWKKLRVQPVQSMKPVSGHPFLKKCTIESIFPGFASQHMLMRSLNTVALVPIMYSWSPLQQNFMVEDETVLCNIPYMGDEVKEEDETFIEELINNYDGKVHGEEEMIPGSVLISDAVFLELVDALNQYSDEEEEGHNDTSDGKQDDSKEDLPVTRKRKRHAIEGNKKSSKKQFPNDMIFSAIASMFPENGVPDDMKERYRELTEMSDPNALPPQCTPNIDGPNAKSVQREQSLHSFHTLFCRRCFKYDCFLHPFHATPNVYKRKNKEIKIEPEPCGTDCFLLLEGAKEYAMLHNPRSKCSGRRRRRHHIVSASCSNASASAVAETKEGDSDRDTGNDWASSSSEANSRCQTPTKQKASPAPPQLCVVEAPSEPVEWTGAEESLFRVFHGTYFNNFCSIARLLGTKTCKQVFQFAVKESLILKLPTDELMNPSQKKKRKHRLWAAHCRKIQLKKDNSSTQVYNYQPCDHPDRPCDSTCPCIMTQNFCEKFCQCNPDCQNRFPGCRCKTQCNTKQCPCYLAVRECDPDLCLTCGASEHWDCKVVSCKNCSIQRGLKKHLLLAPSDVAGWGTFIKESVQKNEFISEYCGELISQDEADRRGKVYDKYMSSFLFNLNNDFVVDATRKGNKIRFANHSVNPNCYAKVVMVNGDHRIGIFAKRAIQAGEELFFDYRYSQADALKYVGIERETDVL

Chains of the proteins cited; added tags and fusions are not shown.
UniProt Q15910, whole entry: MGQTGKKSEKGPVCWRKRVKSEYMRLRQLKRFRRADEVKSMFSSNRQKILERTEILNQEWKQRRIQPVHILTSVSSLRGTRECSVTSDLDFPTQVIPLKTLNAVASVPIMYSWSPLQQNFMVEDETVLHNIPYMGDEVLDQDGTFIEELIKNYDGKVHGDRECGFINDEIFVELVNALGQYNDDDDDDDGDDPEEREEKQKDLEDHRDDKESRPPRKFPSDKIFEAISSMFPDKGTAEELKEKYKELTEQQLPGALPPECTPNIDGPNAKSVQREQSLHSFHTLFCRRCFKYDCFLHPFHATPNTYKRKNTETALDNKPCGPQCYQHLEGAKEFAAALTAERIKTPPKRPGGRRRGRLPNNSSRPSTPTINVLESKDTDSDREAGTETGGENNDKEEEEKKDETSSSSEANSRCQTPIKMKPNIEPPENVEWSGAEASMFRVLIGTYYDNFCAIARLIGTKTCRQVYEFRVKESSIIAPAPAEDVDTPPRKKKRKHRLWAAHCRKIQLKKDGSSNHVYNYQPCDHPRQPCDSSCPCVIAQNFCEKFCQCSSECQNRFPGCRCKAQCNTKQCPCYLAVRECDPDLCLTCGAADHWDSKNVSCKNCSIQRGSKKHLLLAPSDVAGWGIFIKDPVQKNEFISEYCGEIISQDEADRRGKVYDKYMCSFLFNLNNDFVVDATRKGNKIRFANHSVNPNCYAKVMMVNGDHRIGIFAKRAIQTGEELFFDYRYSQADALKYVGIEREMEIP
UniProt Q15910, whole entry Y641F: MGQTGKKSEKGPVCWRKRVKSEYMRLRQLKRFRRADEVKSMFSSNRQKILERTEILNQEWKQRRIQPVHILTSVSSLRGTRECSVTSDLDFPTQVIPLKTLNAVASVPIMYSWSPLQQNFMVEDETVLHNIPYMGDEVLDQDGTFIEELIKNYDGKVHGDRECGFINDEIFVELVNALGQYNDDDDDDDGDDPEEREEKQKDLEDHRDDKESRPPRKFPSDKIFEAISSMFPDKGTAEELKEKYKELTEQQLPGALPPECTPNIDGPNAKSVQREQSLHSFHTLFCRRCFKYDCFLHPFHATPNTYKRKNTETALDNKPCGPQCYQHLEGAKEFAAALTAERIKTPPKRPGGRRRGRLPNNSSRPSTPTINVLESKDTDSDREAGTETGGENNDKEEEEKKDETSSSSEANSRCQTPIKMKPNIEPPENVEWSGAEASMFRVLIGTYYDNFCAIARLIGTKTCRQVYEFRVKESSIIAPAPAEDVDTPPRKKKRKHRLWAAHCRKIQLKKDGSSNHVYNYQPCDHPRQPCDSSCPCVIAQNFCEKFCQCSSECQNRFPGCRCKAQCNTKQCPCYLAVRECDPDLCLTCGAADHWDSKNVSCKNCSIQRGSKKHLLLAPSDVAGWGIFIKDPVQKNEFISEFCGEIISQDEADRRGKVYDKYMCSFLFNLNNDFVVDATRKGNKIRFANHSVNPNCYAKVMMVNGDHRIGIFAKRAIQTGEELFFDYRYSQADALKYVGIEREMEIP
UniProt Q15910, whole entry Y641N: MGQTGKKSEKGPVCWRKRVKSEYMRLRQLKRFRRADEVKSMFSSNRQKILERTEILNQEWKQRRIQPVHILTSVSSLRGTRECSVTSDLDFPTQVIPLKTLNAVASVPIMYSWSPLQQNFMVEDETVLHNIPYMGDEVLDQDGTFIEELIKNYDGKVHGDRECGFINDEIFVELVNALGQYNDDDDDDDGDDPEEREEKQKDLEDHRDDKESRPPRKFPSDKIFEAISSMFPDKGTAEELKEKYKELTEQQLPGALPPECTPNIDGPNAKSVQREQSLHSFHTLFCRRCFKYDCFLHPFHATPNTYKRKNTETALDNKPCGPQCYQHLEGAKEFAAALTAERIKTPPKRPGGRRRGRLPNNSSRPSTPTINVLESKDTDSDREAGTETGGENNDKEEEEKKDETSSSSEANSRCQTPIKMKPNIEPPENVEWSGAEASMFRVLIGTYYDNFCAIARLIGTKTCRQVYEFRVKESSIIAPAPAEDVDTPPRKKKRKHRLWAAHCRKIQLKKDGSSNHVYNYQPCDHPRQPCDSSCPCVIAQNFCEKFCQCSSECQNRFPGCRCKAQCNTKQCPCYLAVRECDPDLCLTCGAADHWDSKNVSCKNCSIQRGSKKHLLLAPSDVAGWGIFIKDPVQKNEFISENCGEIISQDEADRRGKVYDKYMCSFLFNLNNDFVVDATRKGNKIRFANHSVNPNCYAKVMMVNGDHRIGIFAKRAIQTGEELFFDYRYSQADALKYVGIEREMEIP

IC50 (WSUDLCL2): 2.26 nM
IC50 (Pfeiffer): 1.03 nM
SMILES: CCN(c1cc(-c2ccc3c(c2)C(N2CCOCC2)CC3)cc(C(=O)NCc2c(OC)cc(C)[nH]c2=O)c1C)C1CCOCC1 (stereo unspecified)

IC50 (Pfeiffer): 383 nM
SMILES: CCN(c1cc(-c2ccc(CN3CCN(C)CC3)nc2)cc2c(NCc3c(C)cc(C)[nH]c3=O)nccc12)[C@H]1CC[C@H](N(C)C)CC1

IC50 [1]: 750 nM
SMILES: CCN(c1cc(Cl)cc(C(=O)NCc2c(CCN(C)C)cc3n(c2=O)NCC3)c1C)[C@H]1CC[C@H](N(C)C)CC1

IC50 (cells): 24 nM
SMILES: CCN1CCN(c2ccc(-c3cc(C(=O)NCc4c(C)cc(C)[nH]c4=O)c(C)c4c3O[C@](C)(CN3CCOCC3)O4)cn2)CC1

IC50 [2]: < 5 nM
SMILES: CCN(c1cc(-c2ccc(OCCOC)cc2)cc(C(=O)NCc2c(C)cc(C)[nH]c2=O)c1C)C1CCC(N(C)C)CC1 (stereo unspecified)

IC50 [3]: 870000 nM
SMILES: C=CCC1(S(=O)(=O)n2ccc3c(C(=O)NCc4c(C)cc(C)[nH]c4=O)cc(-c4ccc(N5CCN(C)CC5)nc4)cc32)CC1

IC50 [2]: 15 nM
Ki [4]: < 3 nM
SMILES: CCN(c1cc(C#CCN2CCOCC2)cc(C(=O)NCc2c(C)cc(C)[nH]c2=O)c1C)[C@H]1CC[C@H](N(C)CCOC)CC1

IC50 (WSUDLCL2): 325 nM
SMILES: CCN(c1cc(C#CC2CCN(C)CC2)cc(C(=O)NCc2c(C)cc(C)[nH]c2=O)c1C)C1CCOCC1

IC50 [5]: 7 nM
SMILES: Cc1cc(C)c(CN2CCc3c(Br)c4c(c(C)c3C2=O)OC(C)([C@H]2CC[C@H](N(C)C)CC2)O4)c(=O)[nH]1 (stereo partly specified)

— ChEMBL document CHEMBL5120864, “Targeting Enhancer of Zeste Homolog 2 for the Treatment of Hematological Malignancies and Solid Tumors: Candidate Structure-Activity Relationships Insights and Evolution Prospects” (J Med Chem, 2022)
